In article PMC3150407, “Differential Inhibitor Sensitivity between Human Kinases VRK1 and VRK2” (PLoS ONE, 2011):

Biological target: T1, human VRK1 (Homo sapiens, UniProt Q99986)
T1 construct: made in house
T1 sequence (Q99986 1-396): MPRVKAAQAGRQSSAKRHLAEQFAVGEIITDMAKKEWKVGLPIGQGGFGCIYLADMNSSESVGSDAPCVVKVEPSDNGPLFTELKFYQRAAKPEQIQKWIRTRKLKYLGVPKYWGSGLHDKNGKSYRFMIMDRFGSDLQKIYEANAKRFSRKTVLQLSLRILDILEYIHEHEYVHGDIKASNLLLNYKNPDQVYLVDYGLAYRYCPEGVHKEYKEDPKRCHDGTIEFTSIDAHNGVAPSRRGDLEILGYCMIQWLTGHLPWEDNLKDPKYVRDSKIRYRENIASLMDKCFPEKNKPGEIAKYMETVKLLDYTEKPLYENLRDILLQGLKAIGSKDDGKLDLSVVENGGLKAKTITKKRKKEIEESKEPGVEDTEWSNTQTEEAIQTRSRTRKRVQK
Test: In vitro kinase assay, VRK1 kinase activity (autophosphorylation and H3 phosphorylation)
Type: biochemical
Details: concentration not given

`CC[C@H](CO)Nc1nc(NCc2ccccc2)c2ncn(C(C)C)c2n1` [Roscovitine, 2-(R)-(1-Ethyl-2-hydroxyethylamino)-6-benzylamino-9-isopropylpurine] was tested. Which “Effect on VRK1 activity, concentration not stated (in words)” value did it give?
Its value is “not inhibited at much higher concentrations”.
